Reference: patent publication US6500466B2, “Chlorhexidine formulations, new chlorhexidine salts, solutions containing these and their use” (Degussa AG, priority 1998, dated 2002)

Experiment: Solubility in water / aqueous solutions of chlorhexidine and its salts
Type: physicochemical
Conditions: salt of chlorhexidine base with the named acid or lactone

solubility in water of chlorhexidine salt: very soluble in water
Substance: chlorhexidine ascorbate
